Drawing on PubChem BioAssay (Tox21), this text covers Potency for 16 compounds.

Sequences of proteins named here, by UniProt entry; tags and fusion partners are left off.
UniProt P19793, whole entry: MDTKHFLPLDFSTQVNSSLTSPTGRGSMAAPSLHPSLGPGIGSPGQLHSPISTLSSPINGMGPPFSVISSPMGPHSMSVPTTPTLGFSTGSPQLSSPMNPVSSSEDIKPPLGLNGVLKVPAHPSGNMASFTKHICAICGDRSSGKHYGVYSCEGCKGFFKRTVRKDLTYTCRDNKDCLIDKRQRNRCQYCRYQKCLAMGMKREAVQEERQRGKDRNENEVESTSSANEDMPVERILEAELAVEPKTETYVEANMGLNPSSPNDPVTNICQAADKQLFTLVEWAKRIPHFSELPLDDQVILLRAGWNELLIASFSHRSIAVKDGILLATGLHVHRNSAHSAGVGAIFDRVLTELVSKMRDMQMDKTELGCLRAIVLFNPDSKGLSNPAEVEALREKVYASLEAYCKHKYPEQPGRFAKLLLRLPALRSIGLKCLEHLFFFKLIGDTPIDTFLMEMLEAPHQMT

Where “and” joins values, the source holds several entries; their conditions need not be identical. Identical values can stand only once. The entries are a selection whose mix differs from that of the whole data set. Records with an inconclusive call do not appear. A structure can be active in one record and inactive in another. A call without a number means that no potency is given here. Calls of active or inactive are those of the source. Calls come from the whole dose curve.
Potency is the fitted concentration of half-maximal effect.

This test concerns the target Retinoic acid receptor RXR-alpha (Homo sapiens) (UniProt P19793). The test can be described thus: qHTS assay to identify small molecule agonists of the RXR signaling pathway (AID 1159527). Note: nearly all actives have a fitted effect of over 35% in size. Particulars: HEK293T RXRa-UAS-bla, beta-lactamase ratio, 16 h; series mostly up to 76.8 µM. An excerpt:
U.S. Tox21 Program National Center for Advancing Translational Sciences [NCATS] NIH Chemical Genomics Center [NCGC] U.S. Environmental Protection Agency [EPA] National Institutes of Environmental Health Sciences [NIEHS] National Toxicology Program [NTP] U.S. Food and Drug Administration [FDA] Tox21 Assay Overview: The Retinoid X receptor (RXR), a nuclear hormone receptor expressed in liver, spleen, placenta, epidermis, central nervous system. These receptors are able to form homo and heterodimers with other nuclear receptors and due to this heterodimerizing ability, RXR functions as master regulators producing diverse physiological effects. Three subtypes of RXR exist; alpha, beta and gamma. Retinoid X receptor alpha (RXR-alpha) has potential roles in metabolic signaling pathways, skin alopecia, dermal cysts, cardiac development, insulin sensitization etc. Therefore screening environmental chemicals on RXR-alpha signaling can be used for the studies focused on such therapeutic applications. For quantification of RXR-alpha ligands signaling, GeneBLAzer RXR alpha-UAS-bla HEK 293T (Life Technologies, Carlsbad, CA) cells containing a beta-lactamase reporter-gene under control of Retinoid X receptor-alpha response element were used to screen Tox21 10K library.
Tox21 Assay Protocol Summary: RXR-alpha HEK 293T cells were dispensed at 2,000 cells/6 uL of assay medium containing 2% charcoal-stripped FBS using a Multidrop Combi (ThermoFisher Scientific, Waltham, MA) dispenser. The assay was performed in black wall/clear-bottom 1536-well plates (Greiner Bio-One North America Inc. Monroe, NC). 9-cis retinoic acid was used as a positive control in the agonist mode screen. After the assay plates were incubated at 37 C and 5% CO2 for 5 hr, 23 nL of compounds dissolved in DMSO, positive controls or DMSO only were transferred to the assay plate by a Pintool station (Kalypsys, San Diego, CA). The assay plates were incubated at 37 C and 5% CO2 for 16 hr. One uL of LiveBLAzer B/G FRET substrate (Life Technologies) was added using a Flying Reagent Dispenser (Aurora Discovery, San Diego, CA) and the plates were incubated at room temperature for 2 hr. Fluorescence intensity (405 nm excitation, 460/530 nm emission) was measured using an Envision plate reader (PerkinElmer, Shelton, CT).
For orientation: qHTS replaces the single test concentration by a dilution series.
As for `OCCSCCO`, the Potency result is “inactive”.
Consider `Cc1cccc([N+](=O)[O-])c1[N+](=O)[O-]`, for which the Potency is active: 20.7 µM.
Regarding `CCOP(=O)(CC)OCC`, the Potency entry is “inactive”.
With `N#CBr`, the Potency entry is “inactive”.
With `CC(C)N(CCO)C(C)C`, the Potency result was “inactive”.
Consider `Nc1cc([N+](=O)[O-])cc([N+](=O)[O-])c1O`, for which the Potency entry is “inactive”.
As for `Cc1c([N+](=O)[O-])cccc1[N+](=O)[O-]`, the Potency entry is “inactive”.
For the compound `O=[N+]([O-])OCC(CO[N+](=O)[O-])(CO[N+](=O)[O-])CO[N+](=O)[O-]`, the Potency entry is “inactive”.
For `COc1ccc([N+](=O)[O-])cc1[N+](=O)[O-]` the value was “inactive”; for `O=[N+]([O-])[O-].[NH4+]`, “inactive”.
On to `COP(C)(=O)OC`, for which the Potency entry was “inactive”.
`[NH4+].[O-][Cl+3]([O-])([O-])[O-]`: the Potency entry is “inactive”.
Consider `Cc1ccc([N+](=O)[O-])cc1[N+](=O)[O-]`, for which the Potency result was “inactive and active: 19.5 µM”.
`CP(=O)(O)OCCC[Si](O)(O)O`: the Potency result was “inactive”.
Turning to `CCN(CC)CCCl`, the Potency entry is “inactive”.
`C/C1=C2N=C(/C=C3N=C(/C(C)=C4\[N-][C@@](C)([C@@H]5N=C1[C@](C)(CCC(=O)NC[C@@H](C)OP(=O)([O-])O[C@H]1[C@@H](O)[C@@H](n6cnc7cc(C)c(C)cc76)O[C@@H]1CO)[C@H]5CC(N)=O)[C@@](C)(CC(N)=O)[C@@H]4CCC(N)=O)[C@@](C)(CC(N)=O)[C@@H]\3CCC(N)=O)C(C)(C)[C@@H]/2CCC(N)=O.[C-]#N.[Co+3]`: the Potency entry was “inactive”.
